The assay addresses Metabotropic glutamate receptor 5 (Rattus norvegicus, UniProt P31424). Nature of the assay: Displacement of [3H]MPEP from mGluR5 in rat brain membrane. Type of assay: cell membranes. In short, it runs like this:
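Binding was measured by the NIMH Psychoactive Drug Screening Program in rat brain membranes, with [3H]MPEP as the mGluR5 radioligand. Single-concentration screens are reported as percent inhibition of [3H]MPEP binding at 10 μM, and some compounds were also tested at 100 μM. For selected compounds, IC50 was determined using a previously published protocol.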

The chains behind the UniProt entries cited, without tags or fusion partners.
UniProt P31424, whole entry: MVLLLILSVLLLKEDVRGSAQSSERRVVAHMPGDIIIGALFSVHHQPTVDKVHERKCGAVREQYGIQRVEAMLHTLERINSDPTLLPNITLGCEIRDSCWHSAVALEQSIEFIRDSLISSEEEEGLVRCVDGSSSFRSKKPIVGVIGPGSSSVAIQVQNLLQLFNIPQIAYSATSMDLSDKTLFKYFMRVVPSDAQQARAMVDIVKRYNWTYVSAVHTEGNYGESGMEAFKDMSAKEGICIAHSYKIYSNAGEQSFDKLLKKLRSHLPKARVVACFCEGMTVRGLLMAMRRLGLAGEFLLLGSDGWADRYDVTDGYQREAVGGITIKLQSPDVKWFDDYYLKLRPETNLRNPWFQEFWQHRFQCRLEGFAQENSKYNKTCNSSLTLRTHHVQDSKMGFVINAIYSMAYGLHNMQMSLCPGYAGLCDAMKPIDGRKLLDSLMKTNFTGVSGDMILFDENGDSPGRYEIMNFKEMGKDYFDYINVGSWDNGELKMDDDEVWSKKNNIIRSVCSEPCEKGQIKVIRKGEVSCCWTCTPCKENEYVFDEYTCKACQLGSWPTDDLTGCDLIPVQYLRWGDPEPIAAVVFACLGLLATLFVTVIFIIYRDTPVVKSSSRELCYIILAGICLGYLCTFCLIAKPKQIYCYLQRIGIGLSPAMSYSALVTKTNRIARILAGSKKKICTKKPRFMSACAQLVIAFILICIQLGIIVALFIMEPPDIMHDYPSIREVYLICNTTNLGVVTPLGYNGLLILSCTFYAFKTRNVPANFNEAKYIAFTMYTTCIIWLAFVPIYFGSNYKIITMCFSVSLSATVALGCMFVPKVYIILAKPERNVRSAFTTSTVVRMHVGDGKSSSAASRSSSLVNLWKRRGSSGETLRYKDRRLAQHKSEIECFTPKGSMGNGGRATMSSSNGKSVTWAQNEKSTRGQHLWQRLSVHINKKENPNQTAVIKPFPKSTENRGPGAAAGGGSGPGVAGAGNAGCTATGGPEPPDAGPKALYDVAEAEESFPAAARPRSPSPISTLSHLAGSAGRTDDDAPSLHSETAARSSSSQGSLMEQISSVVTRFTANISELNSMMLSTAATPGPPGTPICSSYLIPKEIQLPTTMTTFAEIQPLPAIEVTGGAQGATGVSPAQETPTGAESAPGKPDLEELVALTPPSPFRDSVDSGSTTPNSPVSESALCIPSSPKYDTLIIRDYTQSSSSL

Results on 1 compound are retold here after ChEMBL document CHEMBL1144657, “Discovery of heterobicyclic templates for novel metabotropic glutamate receptor subtype 5 antagonists” (Bioorg Med Chem Lett, 2007).

Broadly, the Ki is the dissociation constant of the complex between target and ligand, obtained from inhibition or displacement. Higher therefore signals lower affinity.

`Cc1cccc(C#Cc2ccccc2)n1` displayed a Ki of 20 nM. That is a double-digit nanomolar value.
